Experimental data reported in patent US12110286B2, “Benzimidazolone derived inhibitors of BCL6” (Cancer Research Technology Limited, priority 2017, dated 2024).

Key:
[1] = biological target: Trx-6×His-BCL6 (human BCL6 BTB domain covering amino-acid sequence 5-129) (Homo sapiens (Human), UniProt P41182); experiment: HTRF in vitro assay (BCL6 / BCOR-AF633 peptide); format: binding; details: further generated data; 1 nM Trx-6×His-BCL6, 300 nM BCOR-AF633 peptide, 0.5 nM anti-6×His-Terbium cryptate
Method: The % inhibition at each concentration was calculated by normalising FRET ratio to the appropriate high (DMSO with all reagents) and low (DMSO without BCL6) controls.

endogenous BCL6 protein = endogenous BCL6 protein (Homo sapiens (Human), UniProt P41182); experiment: Immunofluorescence-based BCL6 degradation assay; format: cell-based; details: 2 hours with compound
Method: Immunofluorescence-Based BCL6 Degradation Assay
DC50 values (compound concentration at which 50% of endogenous BCL6 protein is degraded) were determined in SUDHL-4 cells (American Type Culture Collection) in an immunofluorescence-based assay using an InCell2200 high content imaging system (GE Healthcare). […] After 20 hours cell culture at 37° C./CO2 incubator, compounds were dispensed in the cell culture plate using ECHO550 acoustic dispenser (Labcyte, Inc.), as 8 point-concentration response (ranging from 5 nM to 10 μM) in 0.67% final DMSO concentration. Cells were incubated with compound for 2 hours at 37° C./CO2 incubator followed by fixation in 4.5% formaldehyde (37% formaldehyde solution, Sigma catalogue F8775) at room temperature for 15 min. […] Blocking and cell permeabilisation were performed by incubating the fixed cells for 1 hour at room temperature in 1×TBS, 5% BSA, 1% Triton X100, followed by three washes on PW384 plate washer. Primary and secondary antibodies were prepared in 1×TBS, 1% BSA, 0.2% Triton X100. […] BCL6 expression in the absence or presence of compound was detected on InCell2200 with 20× objective and quantified on InCell Analyser 3.7.2 workstation (GE Healthcare). The % response at each concentration was calculated by normalising BCL6 expression in the presence of compound to the appropriate high (DMSO) and low (DMSO with 7 μM CCT369260) controls.

**Q.** `Cn1c(=O)n(CCC(C)(C)O)c2cc(Nc3nc(N4CCC(F)(F)C(CO)C4)ncc3Cl)ccc21` (centres unmarked) [Example 35a, 5-((5-chloro-2-(4,4-difluoro-3-(hydroxymethyl)piperidin-1-yl)pyrimidin-4-yl)amino)-3-(3-hydroxy-3-methylbutyl)-1-methyl-1,3-dihydro-2H-benzo[d]imidazol-2-one] was tested. Which “HTRF pIC50” value [1] did it give?
**A.** 7.15

**Q.** What about the “Degradation assay in SU-DHL4 cells (pDC50)” value (endogenous BCL6 protein) of the same molecule?
**A.** 6.92
